Amino acid sequences for entries named in this document (tags omitted). A change or cut given only in a name is not applied to a line headed by its entry.
UniProt Q9Y5N1: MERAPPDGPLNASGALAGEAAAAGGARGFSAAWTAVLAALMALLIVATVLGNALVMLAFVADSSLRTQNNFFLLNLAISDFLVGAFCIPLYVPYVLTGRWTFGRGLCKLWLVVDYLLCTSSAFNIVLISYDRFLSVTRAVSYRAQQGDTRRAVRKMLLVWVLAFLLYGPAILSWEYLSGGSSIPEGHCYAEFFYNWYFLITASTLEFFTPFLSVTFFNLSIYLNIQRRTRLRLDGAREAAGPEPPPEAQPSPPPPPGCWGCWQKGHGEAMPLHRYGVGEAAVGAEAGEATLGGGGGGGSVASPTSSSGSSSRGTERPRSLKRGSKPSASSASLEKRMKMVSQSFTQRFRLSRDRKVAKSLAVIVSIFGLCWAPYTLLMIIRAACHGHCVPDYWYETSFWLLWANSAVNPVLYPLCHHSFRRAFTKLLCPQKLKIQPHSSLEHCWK
UniProt Q9QYN8: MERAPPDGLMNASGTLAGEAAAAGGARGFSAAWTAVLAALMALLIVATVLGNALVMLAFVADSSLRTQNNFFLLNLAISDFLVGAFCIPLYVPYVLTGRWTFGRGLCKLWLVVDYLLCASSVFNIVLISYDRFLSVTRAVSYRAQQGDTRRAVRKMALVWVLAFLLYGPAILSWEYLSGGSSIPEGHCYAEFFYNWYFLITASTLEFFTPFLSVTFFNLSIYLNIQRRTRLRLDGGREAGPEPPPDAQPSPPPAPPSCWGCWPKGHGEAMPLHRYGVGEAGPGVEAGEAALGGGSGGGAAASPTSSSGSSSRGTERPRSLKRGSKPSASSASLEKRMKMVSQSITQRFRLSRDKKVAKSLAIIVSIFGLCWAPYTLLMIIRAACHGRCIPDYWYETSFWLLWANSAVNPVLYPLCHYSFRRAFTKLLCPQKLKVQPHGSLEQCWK

According to ChEMBL document CHEMBL1955733, “Optimization of 5-pyridazin-3-one phenoxypropylamines as potent, selective histamine H₃ receptor antagonists with potent cognition enhancing activity” (J Med Chem, 2012):

Legend:
Histamine H3 receptor [1] = target: T1, Histamine H3 receptor (Homo sapiens, UniProt Q9Y5N1)
Histamine H3 receptor [2] = target: T2, Histamine H3 receptor (Rattus norvegicus, UniProt Q9QYN8)
Histamine H3 receptor [3] = target: T2, Histamine H3 receptor; experiment: Displacement of [3H]NAMH from rat cloned […] expressed in CHO cells; assay type: cell-based
Histamine H3 receptor [4] = target: T1, Histamine H3 receptor; experiment: Displacement of [3H]NAMH from human cloned […] expressed in CHO cells; assay type: cell-based

Structure (SMILES)	pEC50 (Histamine H3 receptor [1])	pEC50 (Histamine H3 receptor [2])	pKi (Histamine H3 receptor [3])	pKi (Histamine H3 receptor [4])
C[C@@H]1CCCN1CCCOc1ccc(-c2cnn(-c3ccccn3)c(=O)c2)cc1	8.96	8.80	–	–
C[C@H]1CCCN1CCCOc1ccc(-c2cnn(-c3ccccn3)c(=O)c2)cc1	–	–	7.54	7.96

pEC50, pKi: −log10 of the molar value.
